# Literature values in paper PMC8893328.
# Amino acid sequences for entries named in this document (tags omitted). Residues count along the entry.
# UniProt P01589, 22-240, chain 1 of 3: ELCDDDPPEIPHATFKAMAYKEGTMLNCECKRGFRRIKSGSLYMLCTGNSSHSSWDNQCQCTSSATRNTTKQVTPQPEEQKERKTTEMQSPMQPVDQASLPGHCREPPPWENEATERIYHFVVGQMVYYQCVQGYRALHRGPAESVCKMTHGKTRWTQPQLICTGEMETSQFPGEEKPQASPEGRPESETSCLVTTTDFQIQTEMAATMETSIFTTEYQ
# UniProt P60568, 21-153: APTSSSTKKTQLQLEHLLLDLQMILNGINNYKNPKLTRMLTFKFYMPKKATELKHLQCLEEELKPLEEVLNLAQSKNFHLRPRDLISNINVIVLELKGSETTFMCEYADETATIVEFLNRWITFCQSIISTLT
# Biological target: IL2R heterotrimeric receptor (Homo sapiens) (UniProt P01589)
substance,measurement,value
IL2 (from UniProt P60568),Kd,0.01 nM
